Values of other authors in US10962518B2, “Dissolution test for sensitive drugs” (ROYAN INSTITUTE, priority 2017, dated 2021).

Conditions: PBS buffer pH = 7.4; at 37° C.; cited from earlier work

For Insulin, the tstability of drug is listed as 2 h.
